The source of these data is US20170209579A1, “NON-INVASIVE RADIOFREQUENCY FIELD TREATMENT FOR CANCER THERAPY” (Baylor College of Medicine, priority 2014, published 2017).

The subject of data set [1] is 4T1 tumors. Description: Real-time RF-IVM imaging of fluorescent tracer perfusion into 4T1 tumors (imaging algorithm).
In data set [2] the test system is 4T1 tumors. Description: RF-enhanced albumin tracer perfusion into 4T1 tumors, immunofluorescent staining (positive area fraction). It counts as in vivo, mouse. Particulars: albumin-Alexa Fluor 647 10 mg/Kg retro-orbital, RF until 41° C., n=6. An excerpt:
(§1) Nude mice (4-6 wk old) were obtained from Charles River Laboratories, Inc. (Wilmington, Mass.). Breast tumors were established using fluorescent 4T1 td-Tomato Bioware® Ultra Red mouse mammary cancer cells purchased from Caliper Life Sciences (Hopkinton, Mass.). Palpable tumors were used once reaching a size ˜5-7 mm in diameter. Pancreatic PANC-1 tumors were generated by an orthotopic injection of 5×10^5 cells (ATCC, Manassas, Va.) into the pancreas of nude mice (ages 4 to 6 weeks). Palpable tumors were used once reaching a size ˜5-7 mm in diameter (250-350 mm^3). Animals were euthanized via CO2 exposure followed by cervical dislocation. All procedures were performed in accordance with protocols approved by the Institutional Animal Care and Use Committee at Baylor College of Medicine and Houston Methodist Research Institute and according to the NIH Guide for the Care and Use of Laboratory Animals.
RF-IVM animal manipulation.
Immunofluorescent imaging. The complete macro-perfusion and uptake of fluorescent tracers throughout the tumor in RF and non-RF treated mice was also analyzed ex vivo using immunofluorescent imaging. This allowed for comparison to the analysis of perfusion of the tracers into the tumor at μm depths obtained using the IVM system. […] The images were captured using Nikon Al confocal microscope and analyzed using Nikon Elements v3.2. […]

Data set [3] concerns orthotopic PANC-1 pancreatic tumors. Description: RF-enhanced albumin perfusion in orthotopic PANC-1 pancreatic tumors (immunofluorescent staining). Type of data set: in vivo, mouse. Particulars: orthotopic PANC-1 tumors.
Description: as §1, with “Animals. […]” for “Animals.”
Immunofluorescent imaging. The complete macro-perfusion and uptake of fluorescent tracers throughout the tumor in RF and non-RF treated mice was also analyzed ex vivo using immunofluorescent imaging. […] The images were captured using Nikon Al confocal microscope and analyzed using Nikon Elements v3.2. […]

As for “albumin: fluorescent-bound albumin tracer, MW˜66 kDa, Life Technologies”, the “albumin perfusion from blood vessels into the tumor” value in the data set on 4T1 tumors [1] (RF treatment duration 4.5 minutes) is “perfusion of the albumin tracer out of blood vessels and into the tumor”. Further, the “relative tumor dye intensity (RTDI)” value in the data set on 4T1 tumors [1] (albumin 10 mg/Kg administered immediately after 30 minutes RF, imaged 25 minutes without RF) is given as “rapid increase in RTDI”. The “albumin perfusion from the blood network into the tumor” value in the data set on 4T1 tumors [1] (control, no RF, imaged 30 minutes) is listed as “very little albumin perfused”. Besides, the “albumin perfusion into the tumor (positive area fraction), RF-treated mice compared to controls” value in the data set on 4T1 tumors [2] is on record as “five times enhancement”. In addition, the “albumin in the pancreatic tumor (positive area fraction), RF compared to control” value in data set [3] was “approximately six times more albumin”.
